{"sequences": {"note": "Chains of the proteins cited; added tags and fusions are not shown.", "UniProt Q13547, whole entry": "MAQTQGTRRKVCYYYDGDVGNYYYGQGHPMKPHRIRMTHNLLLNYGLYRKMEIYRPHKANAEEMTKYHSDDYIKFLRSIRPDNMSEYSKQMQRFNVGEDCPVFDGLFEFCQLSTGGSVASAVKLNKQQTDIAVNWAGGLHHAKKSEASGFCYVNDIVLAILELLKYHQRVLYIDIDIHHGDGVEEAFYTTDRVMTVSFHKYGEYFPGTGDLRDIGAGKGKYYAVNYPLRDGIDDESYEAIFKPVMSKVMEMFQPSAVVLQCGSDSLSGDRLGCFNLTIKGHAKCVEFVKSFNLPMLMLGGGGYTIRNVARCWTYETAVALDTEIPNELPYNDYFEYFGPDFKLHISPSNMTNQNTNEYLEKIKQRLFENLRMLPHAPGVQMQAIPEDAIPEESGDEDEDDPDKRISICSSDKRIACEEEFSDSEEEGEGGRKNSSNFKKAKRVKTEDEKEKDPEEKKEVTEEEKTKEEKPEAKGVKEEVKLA"}, "source": "patent US20130231373A1", "key": {"HCT116": {"test_system": "HCT116", "assay": "HCT116 IC50 (Table 2)", "conditions": "read-out: HCT116 IC50"}, "HDAC-1": {"target": "HDAC-1 (Homo sapiens, UniProt Q13547)", "assay": "HDAC Inhibition Assay (purified GST-HDAC protein)", "conditions": "read-out: HDAC-1 IC50", "source_text": "The baculovirus donor vector pFB-GSTX3 is used to generate a recombinant baculovirus that expresses the HDAC polypeptide. Transfer vectors containing the HDAC coding region are transfected into the DH10Bac cell line (GIBCO) and plated on selective agar plates. Colonies without insertion of the fusion sequence into the viral genome (carried by the bacteria) are blue. Single, white colonies are picked and viral DNAs (bacmid) are isolated from the bacteria by standard plasmid purification procedures. Sf9 cells or Sf21 (American Type Culture Collection) cells are then transfected in 25 cm^3 flasks with the viral DNA using Cellfectin reagent.\nDetermination of Small Scale Protein Expression in Sf9 Cells\nVirus-containing media is collected from the transfected cell culture and used for infection to increase its titer. Virus-containing media obtained after two rounds of infection is used for large-scale protein expression. […]\nHDAC assays with purified GST-HDAC protein are carried out in a final volume of 30 μL containing 15 ng of GST-HDAC protein, 20 mM tris-HCl, pH 7.5, 1 mM MnCl2, 10 mM MgCl2, 1 mM DTT, 3 μg/mL poly(Glu,Tyr) 4:1, 1% DMSO, 2.0 μM ATP (γ-[^33P]-ATP 0.1 μCi). […] Membranes are counted after drying at ambient temperature, mounting in Packard TopCount 96-well frame, and addition of 10 μL/well of MICROSCINT™ (Packard). […]\nNormalized IC50=measured IC50 average ref. IC50/measured ref. IC50 […]"}}}
{"smiles": "O=C(/C=C/c1ccc(CN2CCC[C@H]2CN2CCc3ccccc32)cc1)NO", "values": [{"measurement": "IC50", "setting": "HCT116", "value": 100, "unit": "nM"}]}
{"smiles": "O=C(/C=C/c1ccc(CN2CCC[C@@H]2Cn2ncc3ccccc32)cc1)NO", "values": [{"measurement": "IC50", "setting": "HCT116", "value": 1, "unit": "nM"}]}
{"smiles": "Cc1[nH]c2ccccc2c1C[C@H]1C[C@H]2CCC[C@H]2N1Cc1ccc(/C=C/C(=O)NO)cc1", "values": [{"measurement": "IC50", "setting": "HDAC-1", "value": 2, "unit": "nM"}]}
{"smiles": "O=C(/C=C/c1ccc(CN2CCC[C@@H]2Cn2cc3ccccc3n2)cc1)NO", "values": [{"measurement": "IC50", "setting": "HDAC-1", "value": 7, "unit": "nM"}, {"measurement": "IC50", "setting": "HCT116", "value": 9, "unit": "nM"}]}
